Assay results taken from patent US20060121085A1, “Formulations for cell-schedule dependent anticancer agents” (priority 2003, published 2006).

Test system: subcutaneous SW480 (Human Colon Cancer) tumors
Experiment: Example 4 Floxuridine in Atrix polymer, SCID mice bearing SW480 tumors II
Conditions: 100 mg/kg FUDR/Saline × 1, ip, 20 μL; listed as free Floxuridine

## O=c1[nH]c(=O)n([C@H]2C[C@H](O)[C@@H](CO)O2)cc1F [FUDR, 5-fluorodeoxyuridine]
  Mortality (%): all survived
